Biological target: T1, CD20 (Acro Biosystems) (UniProt P11836 1-297)
T1 sequence (looked up): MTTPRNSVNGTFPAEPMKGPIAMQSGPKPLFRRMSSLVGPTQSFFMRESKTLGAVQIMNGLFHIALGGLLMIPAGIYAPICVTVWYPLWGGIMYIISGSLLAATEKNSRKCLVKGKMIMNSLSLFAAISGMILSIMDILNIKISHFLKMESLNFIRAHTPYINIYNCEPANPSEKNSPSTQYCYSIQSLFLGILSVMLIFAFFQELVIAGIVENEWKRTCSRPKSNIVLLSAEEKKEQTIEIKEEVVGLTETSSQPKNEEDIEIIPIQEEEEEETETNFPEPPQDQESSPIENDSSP

B1: obinutuzumab (antibody, V domains shown)
VH: QVQLVQSGAEVKKPGSSVKVSCKASGYAFSYSWINWVRQAPGQGLEWMGRIFPGDGDTDYNGKFKGRVTITADKSTSTAYMELSSLRSEDTAVYYCARNVFDGYWLVYWGQGTLVTVSS
VL: DIVMTQTPLSLPVTPGEPASISCRSSKSLLHSNGITYLYWYLQKPGQSPQLLIYQMSNLVSGVPDRFSGSGSGTDFTLKISRVEAEDVGVYYCAQNLELPYTFGGGTKVEIK
- Kd: 5.03 nM
- koff: 0.00123 s⁻¹
- kon: 246000 M⁻¹ s⁻¹

Reference: US20230173091A1 (published 2023)
